Experimental data taken from patent US20230219964A1, “ANTIBACTERIAL AND ANTIFUNGAL PLEUROMUTILIN CONJUGATES” (SYDDANSK UNIVERSITET, priority 2020, published 2023).
Converted amounts (≈) assume the structure as drawn.

Legend:
Type in all cases: cell-based
[1] = system: vancomycin-resistant enterococci (VRE) cells, VRE 1; assay: MIC in vitro broth micro-dilution assay, VRE 1; settings: Enterococcus, read-out: in vitro susceptibility (MIC) VRE 1
Experimental: (§1) Bacterial susceptibility was established through an in vitro cell-based broth micro-dilution assay. To produce accurate and reproducible MIC-values, a procedure was used which follows the guidelines set by the Clinical and Laboratory Standards Institute (CLSI, USA) and the European Committee on Antimicrobial Susceptibility Testing (EUCAST). The micro-dilutions were carried out in 96-well plates, according to FIG. 3, wherein column 1 is a growth control, Columns 2 to 11 are dilutions of 1×, 2×, 4×, 8×, 16×, 32×, 64×, 128×, 256×, 512× respectively, and column 12 is a sterile control. To further increase the reliability of each susceptibility test, inoculation involved the use of three independent overnight cultures (ON1-ON3) thus giving rise to […]. Furthermore, each ON was added to two individual dilution rows, giving rise to biological duplicates. […]
(§2) 1.11 The optical density of bacterial cells in the ON culture was measured at wavelength 600 nm (OD600). […] 1.12 Then the OD600 was re-measured to make certain that it was between 0.08 and 0.13. […]
(§3) 1.18 Verification of standard inoculum: The 100× diluted culture of 1.13 was used to create 10^−1 to 10^−4 dilutions in PBS/0.9% saline (100 μl sample to 900 μl PBS, mix well and continue until 10^−4). […] 1.21 The plates were examined manually or by using the plate reader. […]

E. faecalis cells = assay: MIC in vitro broth micro-dilution assay, E. faecalis; settings: Enterococcus faecalis, read-out: in vitro susceptibility (MIC) E. Faecalis
Experimental: as §1, §2, §3

[2] = system: vancomycin-resistant enterococci (VRE) cells, VRE 5; assay: MIC in vitro broth micro-dilution assay, VRE 5; settings: Enterococcus, read-out: in vitro susceptibility (MIC) VRE 5
Experimental: as §1, §2, §3

Work on `C=C[C@]1(C)C[C@@H](OC(=O)Cn2cc(-c3ccc(Cn4cnc5c(N6CCN(C)CC6)ncnc54)cc3)nn2)[C@]2(C)[C@H](C)CC[C@]3(CCC(=O)[C@H]32)[C@@H](C)[C@@H]1O` [C3] yielded an MIC [1] of 0.12 to 0.25 µg/mL (≈ 0.163 to 0.34 µM), an MIC (E. faecalis cells) of 0.25 µg/mL (≈ 0.34 µM) and an MIC [2] of 0.12 to 0.25 µg/mL (≈ 0.163 to 0.34 µM).
